Here are results for two molecules from patent US6998409B2, “Substituted 2-pyridine cyclohexane-1,4-diamine compounds” (dated 2006).

Each structure is given as a SMILES string.

This test has as its system mice. Kind of test: Analgesia testing in the tail flick test in mice. The conditions noted are these: 10 mg/kg intravenous (dose in parentheses). A general note: In hot-plate and tail-flick tests a longer latency is read as antinociception.

`COC(=O)C(Cc1c[nH]c2ccccc12)NC1CCC(c2ccccn2)(N(C)C)CC1` (single isomer, unassigned): the “% MPE in comparison to control group” value is listed as 91 (10) % MPE.

Take `CC(=O)N(CCc1c[nH]c2ccccc12)C1CCC(c2ccccn2)(N(C)C)CC1` (centres unmarked): the “% MPE in comparison to control group” value is 71 (10) % MPE.
